Experimental data published in ChEMBL document CHEMBL1129713, “Inhibitors of MMP-1: an examination of P1 C gem-disubstitution in the succinamide hydroxamate series” (Bioorg Med Chem Lett, 1996).

Molecular target: T1, Interstitial collagenase (Homo sapiens, UniProt P03956)
T1 sequence (P03956 whole entry): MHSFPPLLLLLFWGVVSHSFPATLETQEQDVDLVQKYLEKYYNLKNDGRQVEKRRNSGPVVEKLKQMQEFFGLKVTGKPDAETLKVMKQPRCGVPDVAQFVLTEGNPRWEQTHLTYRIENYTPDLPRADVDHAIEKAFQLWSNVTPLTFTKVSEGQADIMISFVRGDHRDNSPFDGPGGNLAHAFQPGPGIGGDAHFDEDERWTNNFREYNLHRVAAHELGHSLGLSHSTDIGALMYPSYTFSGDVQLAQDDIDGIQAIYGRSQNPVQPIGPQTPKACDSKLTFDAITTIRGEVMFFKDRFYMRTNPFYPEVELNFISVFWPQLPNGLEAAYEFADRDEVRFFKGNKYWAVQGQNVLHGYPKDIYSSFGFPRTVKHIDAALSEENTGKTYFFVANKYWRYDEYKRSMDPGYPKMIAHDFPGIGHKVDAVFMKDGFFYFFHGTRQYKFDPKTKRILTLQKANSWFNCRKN
Assay: Inhibition of Matrix Metallo Proteinase-1 (MMP-1)

CNC(=O)[C@H](Cc1ccc(OC)cc1)NC(=O)[C@@H](CC(=O)NO)CC(C)C
IC50: 1.9 nM
